Test results: ChEMBL document CHEMBL3352272, “Discovery of 2-[5-(4-Fluorophenylcarbamoyl)pyridin-2-ylsulfanylmethyl]phenylboronic Acid (SX-517): Noncompetitive Boronic Acid Antagonist of CXCR1 and CXCR2” (J Med Chem, 2014)
pIC50: −log10 of the molar value.

By UniProt entry, the sequences of proteins in these tests, tags left out.
UniProt P25025, whole entry: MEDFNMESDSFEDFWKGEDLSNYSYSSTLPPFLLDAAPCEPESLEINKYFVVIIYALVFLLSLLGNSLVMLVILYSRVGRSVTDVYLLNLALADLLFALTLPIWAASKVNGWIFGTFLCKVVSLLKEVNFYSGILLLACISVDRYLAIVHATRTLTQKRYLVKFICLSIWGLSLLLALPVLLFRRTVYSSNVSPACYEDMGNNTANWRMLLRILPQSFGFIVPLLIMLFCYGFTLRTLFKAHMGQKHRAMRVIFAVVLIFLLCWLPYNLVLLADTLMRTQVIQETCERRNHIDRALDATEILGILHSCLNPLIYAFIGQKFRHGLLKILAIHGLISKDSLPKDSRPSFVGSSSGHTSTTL

Experiments:
[1] = biological target: T1, C-X-C chemokine receptor type 2 (Homo sapiens, UniProt P25025); test: Antagonist activity at human CXCR2 expressed in HEK293 cells assessed as inhibition of CXCL8-induced intracellular Ca2+ release by fluorescence based calcium flux assay; assay type: functional, cell-based
Outline: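 HEK293 cells stably transfected with human CXCR2 (pooled G418-selected line) loaded with FLIPR Calcium 3 dye in HBSS without Ca/Mg plus 10 mM HEPES, with compound or DMSO (1% final), 30 min at 37 °C. Cells resuspended in HBSS with Ca/Mg, compound re-added, 10^5 cells/well.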

[2] = biological target: T1, C-X-C chemokine receptor type 2; test: Antagonist activity at CXCR2 in human PMNs assessed as inhibition of CXCL1-induced intracellular Ca2+ release by fluorescence based calcium flux assay; assay type: functional, cell-based
Outline: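 Human PMNs isolated from healthy donor blood (dextran sedimentation, Histopaque 1077, hypotonic RBC lysis). Cells loaded with FLIPR Calcium 3 dye in Ca/Mg-free HBSS with 10 mM HEPES plus compound, 30 min at 37 °C, then resuspended in HBSS with Ca/Mg and compound again. Stimulus was 25 nM CXCL1 (final). Fluorescence (ex 485, em 525 nm) read every 5 s at room temperature. Max–min signal normalised to DMSO control.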

Structure (SMILES): O=C(Nc1ccc([N+](=O)[O-])cc1O)Nc1ccccc1Br
- pIC50 [1]: 7.40
- pIC50 [2]: 7.52
